We go through 2 substances from patent US20250064955A1, “DRUG CONJUGATES AND METHODS OF PREPARING AND USING THE SAME” (priority 2021, published 2025).

This experiment concerns HCC1954 breast ductal carcinoma cells. The experiment is described as follows: In vitro potency, cell viability (Cell Titer Glo 2.0), HCC1954. The settings on record: HCC1954, 120 hours. The class given is cell-based. As for the experimental part:
HCC1954 breast ductal carcinoma or SK-BR-3 cells (ATCC, Manassas, VA, USA) were seeded into 384-well white-walled culture plates and allowed to adhere for 2-4 hours. Cells were then treated with test articles at least in duplicate by addition of 5-fold serially diluted test articles prepared at 2× final concentration and incubated at 37° C. for 120 hours. Cell viability following treatment was determined by Cell Titer Glo 2.0 Assay (Promega, Madison, WI, USA) and normalized to non-treated controls. Dose-response relationships were analyzed using GraphPad Prism (La Jolla, CA, USA), and IC50 values were derived from non-linear regression analyses using a 4-parameter logistic equation.
For orientation: In ATP-based viability assays light output follows the ATP content of the culture.

With “Trastuzumab-MC-VC-MMAE: Trastuzumab conjugated with MC-VC-PABC-MMAE Seagen drug-linker”, the IC50 was 40 pM.

In the case of Trastuzumab-23, the IC50 is 60 pM.

As a reminder, the IC50 is the midpoint of a concentration-inhibition curve. Read a high IC50 as weaker potency in that assay.
